Results taken from article PMC6287304 (Antiviral Chemistry & Chemotherapy, 2018).

Target: T1, VZV DNA pol (Varicella-zoster virus, UniProt P09252)
T1 sequence (P09252 1-1194): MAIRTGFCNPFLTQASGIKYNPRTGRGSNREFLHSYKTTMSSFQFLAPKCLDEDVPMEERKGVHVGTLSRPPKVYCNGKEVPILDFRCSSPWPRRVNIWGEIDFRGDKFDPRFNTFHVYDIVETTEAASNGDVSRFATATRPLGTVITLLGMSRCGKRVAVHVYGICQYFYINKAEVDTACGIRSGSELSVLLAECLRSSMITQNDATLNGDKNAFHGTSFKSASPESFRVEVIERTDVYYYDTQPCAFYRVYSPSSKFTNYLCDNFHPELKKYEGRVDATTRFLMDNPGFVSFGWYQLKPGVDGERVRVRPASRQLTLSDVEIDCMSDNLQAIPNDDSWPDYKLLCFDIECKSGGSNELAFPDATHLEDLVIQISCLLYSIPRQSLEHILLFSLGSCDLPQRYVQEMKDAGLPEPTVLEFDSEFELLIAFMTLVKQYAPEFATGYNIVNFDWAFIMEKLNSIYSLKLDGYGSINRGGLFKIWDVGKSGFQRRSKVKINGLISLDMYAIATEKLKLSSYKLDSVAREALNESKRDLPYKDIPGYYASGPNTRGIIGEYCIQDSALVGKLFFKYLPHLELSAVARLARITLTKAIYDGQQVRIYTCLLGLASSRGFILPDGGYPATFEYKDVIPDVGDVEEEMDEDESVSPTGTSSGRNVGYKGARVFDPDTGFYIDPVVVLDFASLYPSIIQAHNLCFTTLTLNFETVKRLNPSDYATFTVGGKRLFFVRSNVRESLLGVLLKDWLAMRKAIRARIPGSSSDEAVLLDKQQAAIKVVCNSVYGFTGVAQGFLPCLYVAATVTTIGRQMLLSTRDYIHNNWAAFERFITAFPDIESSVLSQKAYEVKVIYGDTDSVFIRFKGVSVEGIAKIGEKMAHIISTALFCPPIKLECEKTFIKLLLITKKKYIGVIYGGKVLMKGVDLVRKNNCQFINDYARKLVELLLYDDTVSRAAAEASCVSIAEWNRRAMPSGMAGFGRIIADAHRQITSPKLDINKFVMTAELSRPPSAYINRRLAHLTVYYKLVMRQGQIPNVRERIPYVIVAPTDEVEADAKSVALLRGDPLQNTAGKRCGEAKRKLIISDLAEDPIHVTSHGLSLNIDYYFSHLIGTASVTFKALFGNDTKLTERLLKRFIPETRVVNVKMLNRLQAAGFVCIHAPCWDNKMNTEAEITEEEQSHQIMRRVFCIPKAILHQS
Assay: DNA polymerase inhibition, VZV DNA pol
Type: biochemical
Details: read-out: IC50 VZV DNA pol dTTP; calf thymus DNA, radiolabeled [3H]dTTP

Question: With `O=C(O)P(=O)(O)O` [PFA pyrophosphate] as the compound, how does the IC50 read?
Answer: The IC50 was 180 ± 10 nM.
